Test results: PubChem BioAssay AID588475 (Sanford-Burnham Center for Chemical Genomics, 2011)
The list shows a part of the results, in another mix than the full data. Calls of active or inactive are those of the source.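 Rule for the calls: active = inhibition of the ligand-induced calcium signal above about 50% at the single tested concentration (limit read from the data); inactive = the rest.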

Test: antagonists of CRF-BP/CRF-R2 complex, primary screen, cell-based, HEK293, calcium dye fluorescence, uHTS (AID 588475)
Conditions: CRF-induced calcium fluorescence, at 11.8 µM, active compounds read high
With `COc1cc(C(=O)NCC2(N3CCOCC3)CCCCC2)cc(Cl)c1OC(C)C` the inhibition was inactive: -52.4%. With `O=[As](O)(O)c1cccnc1` the inhibition was inactive: -7.31%. In the case of `O=C(OC1CN2CCC1CC2)c1ccc(Cl)cc1` (stereo not drawn), the inhibition is reported as inactive: -9.01%. In the case of `CCOP(=O)(Nc1cccc2ccccc12)OCC`, the inhibition is reported as inactive: -24.1%. For `COc1cc(C2NCCC3(OCCO3)C2(C)C)cc(OC)c1OC` (stereo not drawn), the inhibition was inactive: -5.09%. For `CCCOP(=S)(Nc1nc(N)cc(=O)[nH]1)OCCC`, the inhibition was inactive: -1.37%. For `Nc1cccc2c([As](=O)(O)O)cccc12`, the inhibition was inactive: -36.2%. In the case of `Cc1ccc(NCCc2c([N+](=O)[O-])cc([N+](=O)[O-])cc2[N+](=O)[O-])cc1`, the inhibition is reported as inactive: -17.4%. For `CC(C)(C)C(=O)NC(Sc1ncccn1)C(Cl)(Cl)Cl` (stereo not drawn), the inhibition was inactive: -5.68%. For `O=P1(N(CCCl)CCCl)NCCC(C(F)(F)F)O1` (stereo not drawn), the inhibition was inactive: 25.2%. With `Clc1n[nH]nc1-c1nn[nH][15n]1` the inhibition was inactive: 2.66%. With `CN(CCCl)Cc1cc(Cl)c(NC2=NCCN2)c(Cl)c1` the inhibition was inactive: -13.6%. In the case of `CCOP(=O)(Nc1ccc(C)cn1)OCC`, the inhibition is reported as inactive: -3.03%. In the case of `CCOP(=O)(NC(=NC(C)c1ccccc1)NC(C)c1ccccc1)OCC` (stereo not drawn), the inhibition is reported as inactive: 14.6%. With `O=P1(Nc2ccccn2)COc2ccccc2OC1` the inhibition was inactive: 5.55%. In the case of `CCC1=CC2Cc3nc4ccc(Cl)cc4c(N)c3C(C1)C2` (stereo not drawn), the inhibition is reported as inactive: 3.69%. For `CC1(CBr)Cn2c(nc3ccccc3c2=O)S1` (stereo not drawn), the inhibition was inactive: 10.6%. For `CC(C)/C=N\N=C(\N)N[N+](=O)[O-]`, the inhibition was inactive: 5.49%. With `CN(C(=O)Cc1ccc(Cl)c(Cl)c1)[C@@H]1CCCC[C@H]1N1CCCC1` the inhibition was inactive: -0.62%. For `COc1ccccc1CNC(=O)COC(=O)C(O)(c1ccccc1)c1ccccc1`, the inhibition was inactive: 2.78%. In the case of `CCCC1OP(=O)(Nc2ccccc2)OCC1CC` (stereo not drawn), the inhibition is reported as inactive: 5.62%. For `O=C(/C=C/c1ccccc1)OC1CN2CCC1CC2` (stereo not drawn), the inhibition was inactive: 2.91%. For `CN(C)C1(CNC(=O)c2ccc(S(C)(=O)=O)cc2)CCCCC1`, the inhibition was inactive: 19.1%. With `CC1CCC(C(C)C)C(OP(=O)(Nc2ccccn2)c2ccccc2)C1` (stereo not drawn) the inhibition was inactive: -30.8%. In the case of `Cc1ccc(C(=O)OC2CN3CCC2CC3)cc1` (stereo not drawn), the inhibition is reported as inactive: -3.09%. In the case of `Cc1nn(-c2ccccc2)c2c1P(=O)(N1CCOCC1)N(C)C(c1ccccc1)=N2` (stereo not drawn), the inhibition is reported as inactive: 8.58%. For `O=P1(Nc2ccc(Br)cn2)COc2ccccc2OC1`, the inhibition was inactive: -20.8%. With `NS(=O)(=O)c1cccc(NC(=O)COC(=O)C(O)(c2ccccc2)c2ccccc2)c1` the inhibition was inactive: 0.05%. In the case of `O=[As](O)(c1cccs1)c1cccs1`, the inhibition is reported as inactive: -0.02%. In the case of `Cc1ccc(OCC(=O)OC2CN3CCC2CC3)cc1` (stereo not drawn), the inhibition is reported as inactive: 6.33%. In the case of `Nc1cccc([As](=O)(O)c2ccccc2)c1`, the inhibition is reported as inactive: 14.6%. In the case of `O=P1(Nc2ncccn2)COc2ccccc2OC1`, the inhibition is reported as inactive: 15%. In the case of `Cc1cc(SC(NC(=O)c2ccccc2)C(Cl)(Cl)Cl)nc(C(C)C)n1` (stereo not drawn), the inhibition is reported as inactive: 14.1%. For `CCCCOc1ccc(C(=O)NCC2(N3CCCCC3)CCCCC2)cc1OC`, the inhibition was inactive: 30.3%. With `COP(=O)(OC)N1CC1c1ccccc1` (stereo not drawn) the inhibition was inactive: 31%. In the case of `CC1CCNP(=O)(N(CCCl)CCCl)O1` (stereo not drawn), the inhibition is reported as inactive: 3.14%. For `CCOC(=O)Nc1ccc([As](=O)(O)O)c(O)c1`, the inhibition was inactive: -5.85%. With `O=C(O)C(O)c1ccc(N(CCCl)CCCl)cc1` (stereo not drawn) the inhibition was inactive: 18%. With `O=[N+]([O-])c1ccc(Nc2ccc(Oc3ccc([N+](=O)[O-])cc3[N+](=O)[O-])cc2)c([N+](=O)[O-])c1` the inhibition was inactive: 14.2%. In the case of `O=P(Nc1ccccn1)(c1cccc2ccccc12)c1cccc2ccccc12`, the inhibition is reported as inactive: -69.4%. With `Cc1cc(SC(NC=O)C(Cl)(Cl)Cl)ncn1` (stereo not drawn) the inhibition was inactive: -7.94%. With `CCOC(=O)Nc1cccc([As](=O)(O)O)c1` the inhibition was inactive: -6.71%. In the case of `O=C(Nc1ccncc1[N+](=O)[O-])c1ccc([N+](=O)[O-])cc1[N+](=O)[O-]`, the inhibition is reported as inactive: 6.62%. With `O=C(COc1ccccc1)OC1CN2CCC1CC2` (stereo not drawn) the inhibition was inactive: 0.73%. For `O=C(O)C(=O)c1ccc(N(CCCl)CCCl)cc1`, the inhibition was inactive: 3.45%. With `COP1(=S)c2c(C)nn(CCC#N)c2N=C(c2ccc(F)cc2)N1C` (stereo not drawn) the inhibition was inactive: 12.2%. With `CCC(C)N(CC(C)C)C(=S)SC(NC(C)=O)C(Cl)(Cl)Cl` (stereo not drawn) the inhibition was inactive: 7.18%. With `CCOC(=O)c1ccc(NC(=O)C(C)(CCl)SC)cc1` (stereo not drawn) the inhibition was inactive: 0.72%. With `CSc1ccc(Nc2c([N+](=O)[O-])cc([N+](=O)[O-])cc2[N+](=O)[O-])cc1` the inhibition was inactive: 11.9%. With `O=C(OC1CN2CCC1CC2)c1cccc([N+](=O)[O-])c1` (stereo not drawn) the inhibition was inactive: 1.1%. For `COc1cc(I)ccc1[As](=O)(O)O`, the inhibition was inactive: -1.89%. For `COc1ccc2nc(NP(=O)(c3ccccc3)c3ccccc3)sc2c1`, the inhibition was inactive: 0.19%. For `O=P1(N(CCCl)CCCl)Nc2ccccc2N1`, the inhibition was inactive: -21.4%. For `O=P1(N(CCCl)CCCl)OCCCN1CCCl` (stereo not drawn), the inhibition was inactive: -4.53%. With `Cc1cc(=O)[nH]c(N[N+](=O)[O-])n1` the inhibition was inactive: 4.6%. With `O=C(OC1CN2CCC1CC2)C12CC3CC(CC(C3)C1)C2` (stereo not drawn) the inhibition was inactive: -11.9%. With `Cc1c2c(nc3ccccc13)SC(C(Cl)Cl)C2` (stereo not drawn) the inhibition was inactive: -10.3%. In the case of `COc1ccc(N/C(=N/P(=O)(N2CCOCC2)N2CCOCC2)N2CCOCC2)cc1`, the inhibition is reported as inactive: -5.85%. With `O=[N+]([O-])c1cc(Oc2ccc([N+](=O)[O-])cc2C(F)(F)F)cc([N+](=O)[O-])c1` the inhibition was inactive: -30.2%. With `Cc1ccc2nc3c(c(C)c2c1)CC(C(Cl)Cl)S3` (stereo not drawn) the inhibition was inactive: -44.6%. With `CC(Cc1ccc(O)cc1)NCC(O)c1cc(O)cc(O)c1` (stereo not drawn) the inhibition was inactive: -0.64%. For `Cc1ccc(OP(=O)(Nc2ccc([N+](=O)[O-])cn2)Oc2ccc(C)cc2)cc1`, the inhibition was inactive: -7.61%. With `COc1cc(C(=O)NCC2(N3CCOCC3)CCCCC2)ccc1OCC(C)C` the inhibition was inactive: 1.48%. With `O=[N+]([O-])c1ccc(-c2cc([N+](=O)[O-])c(O)c([N+](=O)[O-])c2)cc1` the inhibition was inactive: 30.6%. With `C[As](=O)(O)c1cccc(C(=O)O)c1` the inhibition was inactive: 6.45%. For `O=[As](O)(c1ccc(O)cc1)c1ccccc1O`, the inhibition was inactive: 13.4%. With `O=[N+]([O-])c1cc([N+](=O)[O-])c(-c2ccn[nH]2)s1` the inhibition was inactive: 6.5%. For `O=C(OC1CN2CCC1CC2)c1cccc2[nH]cnc12` (stereo not drawn), the inhibition was inactive: -3.26%. With `CCN(CC)C(=S)SC(NC=O)C(Cl)(Cl)Cl` (stereo not drawn) the inhibition was inactive: 0.5%. In the case of `CC(C)NC(=O)NP(=O)(Oc1ccccc1)Oc1ccccc1`, the inhibition is reported as inactive: 38.1%. With `CC(C)c1ccc(OP(=O)(Nc2ccccn2)Oc2ccccc2F)cc1` (stereo not drawn) the inhibition was inactive: 48.7%. In the case of `COC(=O)C1(C)COP(=O)(N2CCCCCC2)OC1` (stereo not drawn), the inhibition is reported as inactive: 15.3%. With `ClCCSc1nnc(-c2cccnc2)o1` the inhibition was inactive: -1%.
